{"source": "patent US7250518B2", "about": "“Nicotinamide acids, amides, and their mimetics active as inhibitors of PDE4 isozymes” (Pfizer Inc., priority 2001, dated 2007)", "origin": "cited, not measured here", "key": {"PDE4": {"tested_on": "PDE4", "details": "read-out: IC50 as PDE4 inhibitor"}, "[1]": {"tested_on": "antigen-induced bronchoconstriction", "details": "guinea pig, in vivo"}}, "data": [{"smiles": "COc1ccc(C(=O)Nc2c(Cl)cncc2Cl)c2cccnc12", "note": "[Example D4418]", "values": [{"measurement": "IC50", "setting": "PDE4", "value": 200, "unit": "nM"}, {"measurement": "Inhibition of antigen-induced bronchoconstriction", "setting": "[1]", "value": "active"}]}]}
